For four compounds, Ki results are on record in patent US10208040B2, “Fused imidazo-piperidine JAK inhibitors” (THERAVANCE BIOPHARMA R&D IP, LLC, priority 2017, dated 2019).

By UniProt entry, the sequences of proteins in these tests, tags left out. Where a name states a change or a piece, a line headed by the entry shows the natural chain unless it says otherwise.
UniProt P29597: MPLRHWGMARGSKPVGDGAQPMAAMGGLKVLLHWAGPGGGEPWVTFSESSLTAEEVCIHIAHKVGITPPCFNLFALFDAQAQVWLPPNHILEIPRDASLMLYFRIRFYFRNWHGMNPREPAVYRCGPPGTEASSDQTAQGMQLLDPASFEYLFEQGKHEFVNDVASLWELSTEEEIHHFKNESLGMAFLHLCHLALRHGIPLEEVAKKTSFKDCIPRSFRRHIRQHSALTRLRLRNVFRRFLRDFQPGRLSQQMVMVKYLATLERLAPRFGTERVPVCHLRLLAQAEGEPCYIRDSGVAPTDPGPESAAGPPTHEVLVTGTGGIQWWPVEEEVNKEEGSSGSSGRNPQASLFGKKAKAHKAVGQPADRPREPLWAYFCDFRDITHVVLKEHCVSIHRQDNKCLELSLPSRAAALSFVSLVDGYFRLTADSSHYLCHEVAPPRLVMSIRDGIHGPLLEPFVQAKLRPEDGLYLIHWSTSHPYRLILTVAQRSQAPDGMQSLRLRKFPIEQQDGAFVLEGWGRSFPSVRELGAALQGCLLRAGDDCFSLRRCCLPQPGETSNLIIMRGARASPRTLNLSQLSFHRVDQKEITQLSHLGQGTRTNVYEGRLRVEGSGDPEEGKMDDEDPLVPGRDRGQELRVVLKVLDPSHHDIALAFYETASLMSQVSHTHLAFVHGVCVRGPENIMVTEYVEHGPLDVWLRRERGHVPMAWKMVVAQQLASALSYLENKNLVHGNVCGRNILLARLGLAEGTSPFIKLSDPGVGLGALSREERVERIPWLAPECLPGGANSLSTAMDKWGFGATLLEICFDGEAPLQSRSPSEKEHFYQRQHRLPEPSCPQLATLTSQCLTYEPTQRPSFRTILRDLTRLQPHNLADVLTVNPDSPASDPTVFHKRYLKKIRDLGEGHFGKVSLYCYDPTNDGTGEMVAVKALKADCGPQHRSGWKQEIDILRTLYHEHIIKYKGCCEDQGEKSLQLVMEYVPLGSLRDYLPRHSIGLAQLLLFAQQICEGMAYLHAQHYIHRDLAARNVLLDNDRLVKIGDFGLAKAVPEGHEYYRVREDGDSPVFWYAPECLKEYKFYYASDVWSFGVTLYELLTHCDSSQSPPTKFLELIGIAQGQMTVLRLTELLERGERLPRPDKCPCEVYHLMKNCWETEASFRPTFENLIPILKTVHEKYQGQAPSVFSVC
UniProt P52333: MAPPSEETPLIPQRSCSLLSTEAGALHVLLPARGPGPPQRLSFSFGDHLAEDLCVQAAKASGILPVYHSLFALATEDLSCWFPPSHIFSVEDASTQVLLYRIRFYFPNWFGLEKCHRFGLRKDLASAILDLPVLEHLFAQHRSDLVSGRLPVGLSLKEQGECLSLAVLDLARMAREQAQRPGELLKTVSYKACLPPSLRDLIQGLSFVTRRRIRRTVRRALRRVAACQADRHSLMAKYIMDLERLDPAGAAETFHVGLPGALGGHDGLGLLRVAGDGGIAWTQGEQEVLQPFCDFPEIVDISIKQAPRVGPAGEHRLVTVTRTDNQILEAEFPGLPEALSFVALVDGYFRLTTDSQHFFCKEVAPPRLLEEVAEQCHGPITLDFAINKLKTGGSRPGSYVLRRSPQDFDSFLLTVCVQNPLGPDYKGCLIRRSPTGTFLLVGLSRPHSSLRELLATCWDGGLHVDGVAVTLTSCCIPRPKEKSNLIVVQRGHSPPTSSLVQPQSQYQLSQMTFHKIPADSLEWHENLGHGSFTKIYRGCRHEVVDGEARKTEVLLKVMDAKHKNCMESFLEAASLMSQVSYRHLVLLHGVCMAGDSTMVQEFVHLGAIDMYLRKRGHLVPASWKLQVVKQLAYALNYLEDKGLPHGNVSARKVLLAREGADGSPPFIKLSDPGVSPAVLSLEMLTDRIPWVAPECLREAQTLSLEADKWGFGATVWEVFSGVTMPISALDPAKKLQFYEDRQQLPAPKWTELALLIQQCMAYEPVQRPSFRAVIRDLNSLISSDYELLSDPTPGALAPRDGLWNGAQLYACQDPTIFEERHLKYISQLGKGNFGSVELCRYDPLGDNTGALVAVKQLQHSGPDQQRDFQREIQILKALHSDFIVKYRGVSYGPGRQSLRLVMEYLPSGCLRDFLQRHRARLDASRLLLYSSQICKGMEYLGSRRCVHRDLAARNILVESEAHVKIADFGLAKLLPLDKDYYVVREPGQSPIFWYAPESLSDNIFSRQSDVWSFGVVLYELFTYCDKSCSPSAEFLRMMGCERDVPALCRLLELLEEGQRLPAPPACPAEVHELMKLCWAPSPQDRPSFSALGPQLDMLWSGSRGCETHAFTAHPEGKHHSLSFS

One assay addresses Tyk2 (Homo sapiens (Human), UniProt P29597). Description: Biochemical JAK kinase assay (LanthaScreen), Tyk2. On the procedure:
(§1) A panel of four LanthaScreen JAK biochemical assays (JAK1, 2, 3 and Tyk2) were carried in a common kinase reaction buffer (50 mM HEPES, pH 7.5, 0.01% Brij-35, 10 mM MgCl2, and 1 mM EGTA). Recombinant GST-tagged JAK enzymes and a GFP-tagged STAT1 peptide substrate were obtained from Life Technologies.
(§2) Serially diluted compounds were pre-incubated with each of the four JAK enzymes and the substrate in white 384-well microplates (Corning) at ambient temperature for 1 h. ATP was subsequently added to initiate the kinase reactions in 10 μL total volume, with 1% DMSO. […] The plates were allowed to incubate at ambient temperature for 1 h before being read on the EnVision reader (Perkin Elmer).
(§3) For dose-response analysis, percent inhibition data were plotted vs. compound concentrations, and IC50 values were determined from a 4-parameter robust fit model with the Prism software (GraphPad Software). Results were expressed as pIC50 (negative logarithm of IC50) and subsequently converted to pKi (negative logarithm of dissociation constant, Ki) using the Cheng-Prusoff equation.
For orientation: TR-FRET usually uses a lanthanide donor and a delayed reading to cut background.

A further assay addresses JAK3 (Homo sapiens (Human), UniProt P52333). Description: Biochemical JAK kinase assay (LanthaScreen), JAK3. As to the method:
as §1, §2, §3

Consider `CCc1cc(O)c(F)cc1-c1ccc2c(-c3nc4c([nH]3)CN(C)C(C(=O)N3CCN(C(C)C)CC3)C4)n[nH]c2c1` (centres unmarked) [Example 1-12], for which the Ki at Tyk2 and at JAK3 was 250 pM throughout.
As to `CCc1cc(O)c(F)cc1-c1ccc2c(-c3nc4c([nH]3)CN(C)[C@H](C(=O)N3CCN(CCO)C[C@H]3C)C4)n[nH]c2c1` [Example 6, ((S)-2-(6-(2-ethyl-5-fluoro-4-hydroxyphenyl)-1H-indazol-3-yl)-5-methyl-4,5,6,7-tetrahydro-3H-imidazo[4,5-c]pyridin-6-yl)((R)-4-(2-hydroxyethyl)-2-methyl-piperazin-1-yl)methanone], the inhibitory constant (Ki) on JAK3 was determined as 250 pM.
Same read-out and setting: with `CCCN1Cc2[nH]c(-c3n[nH]c4cc(-c5cc(F)c(O)cc5CC)ccc34)nc2C[C@H]1C(=O)N1CCN(CCO)CC1` [Example 7, (S)-(2-(6-(2-ethyl-5-fluoro-4-hydroxyphenyl)-1H-indazol-3-yl)-5-propyl-4,5,6,7-tetrahydro-3H-imidazo[4,5-c]pyridin-6-yl)(4-(2-hydroxyethyl)piperazin-1-yl)methanone] the figure was 160 pM; with `CCCN1Cc2[nH]c(-c3n[nH]c4cc(-c5cc(F)c(O)cc5CC)ccc34)nc2C[C@@H]1C(=O)N1CC[C@H](N(C)C)C1` [Example 9-21], 250 pM.

For orientation: Ki means the equilibrium dissociation constant of an inhibitor or competing ligand from its target. Higher therefore signals weaker binding.
